# Values of other authors as cited in paper PMC140124 (Biological Procedures Online, 1998).
# Conditions: presence of peptidase inhibitors; ref [1]
substance,measurement,value
Tyr-Gly-Gly-Phe-Leu,change of elimination clearance from the mucosal side,decreased
